Our source for the IC50 values is patent publication US20250059205A1, “Heterocyclic Compounds and Methods of Use” (AMGEN INC., priority 2021, published 2025).

By UniProt entry, the sequences of proteins in these tests, tags left out. Residues count along the entry.
UniProt P01116, 1-188 isoform 2 G12D: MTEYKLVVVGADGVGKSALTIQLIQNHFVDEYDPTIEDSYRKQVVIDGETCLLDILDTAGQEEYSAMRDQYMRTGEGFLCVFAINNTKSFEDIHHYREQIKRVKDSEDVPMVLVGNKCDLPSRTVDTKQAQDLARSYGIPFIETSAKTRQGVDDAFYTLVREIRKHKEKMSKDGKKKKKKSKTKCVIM

Assay [1] concerns the target His-tagged KRAS G12D protein (Homo sapiens, UniProt P01116, G12D). The assay is described as follows: KRAS G12D TR-FRET Assay. Type of assay: binding. To be noted: read-out: TR-FRET KRAS G12D IC50. For orientation: Time-resolved FRET reads energy transfer from a long-lived donor to a nearby acceptor.
Assay [2] concerns Phosphorylation of ERK1/2 in A-427 cells. Briefly: Phospho-ERK1/2 MSD Assay (A-427 cells).
In assay [3] the test system is Phosphorylation of ERK1/2 in AsPC-1 cells. Briefly: Phospho-ERK1/2 MSD Assay (AsPC-1 cells). Type of assay: cell-based.
Where [4] appears, read: tested form: bis(2,2,2-trifluoroacetate).
The mark [5] stands for this setting: read-out: p-ERK (A427 cells) IC50, 2 h treatment, tested form: bis(2,2,2-trifluoroacetate).
The mark [6] stands for this setting: read-out: p-ERK (AsPC-1 cells) IC50, 2 hours treatment, tested form: bis(2,2,2-trifluoroacetate).
Where [7] appears, read: read-out: p-ERK (A427 cells) IC50, 2 h treatment, tested form: TFA salt.
The mark [8] stands for this setting: read-out: p-ERK (AsPC-1 cells) IC50, 2 hours treatment, tested form: TFA salt.

Structures are written as SMILES. Read-outs that look alike come from different tables or passages of the source.

What is called IC50 is the concentration that inhibits the measured activity by half. Consider `Cc1cc2c(N3C[C@H]4CC[C@@H](C3)N4)nc(OC[C@@]34CCCN3C[C@H](F)C4)nc2c(F)c1-c1cc(O)cc2ccccc12`, for which the IC50 in assay [1] (setting [4]) turned out to be 4 nM; in assay [2] (setting [5]) it was 41 nM; in assay [3] (setting [6]) it was 167 nM.

For `C=Cc1cc2c(N3C[C@H]4CC[C@@H](C3)N4)nc(OC[C@@]34CCCN3C[C@H](F)C4)nc2c(F)c1-c1cc(O)cc2ccccc12`, the IC50 in assay [1] (setting [4]) was determined as 5 nM; in assay [2] (setting [5]), 68 nM; in assay [3] (setting [6]), 368 nM.

On to `CCc1cc2c(N3C[C@H]4CC[C@@H](C3)N4)nc(OC[C@@]34CCCN3C[C@H](F)C4)nc2c(F)c1-c1cc(O)cc2ccccc12`, for which the IC50 in assay [1] (setting [4]) was determined as 5 nM; in assay [2] (setting [5]) it was 33 nM; in assay [3] (setting [6]), 127 nM.

Turning to `Cc1ccc2cnn(C)c2c1-c1ccc2c(N3C[C@H]4CC[C@@H](C3)N4)nc(OC[C@@]34CCCN3C[C@H](F)C4)nc2c1F`, the half-maximal inhibitory concentration (IC50) in assay [1] (tested form: TFA salt) is 42 nM; in assay [2] (setting [7]) it was 3170 nM; in assay [3] (setting [8]) it was 3150 nM.

`Cc1cc2cnn(C)c2c(-c2ccc3c(N4C[C@H]5CC[C@@H](C4)N5)nc(OC[C@@]45CCCN4C[C@H](F)C5)nc3c2F)c1C`: the values for the IC50 in assay [1] (tested form: TFA salt), in assay [2] (setting [7]) and in assay [3] (setting [8]) were 26 nM, 2120 nM and 2380 nM, respectively.

`CCc1cccc2cccc(-c3c(F)cc4c(N5[C@@H]6CC[C@H]5CNC6)nc(OC[C@@]56CCCN5C[C@H](F)C6)nc4c3F)c12`: the results for the IC50 in assay [1] (tested form: TFA salt), in assay [2] (setting [7]) and in assay [3] (setting [8]) were 19 nM, 4470 nM and 1780 nM, respectively.
